US8536354B2, “Steroidal ligands and their use in gene switch modulation” (Intrexon Corporation, priority 2008, dated 2013)

Chains of the proteins cited; added tags and fusions are not shown. A line that says so, or that is headed by a name, gives the form on record, which may keep a tag or linker. Residues count along the entry.
UniProt P49881, 273-606 with tags or gaps limits assumed, stated change not applied: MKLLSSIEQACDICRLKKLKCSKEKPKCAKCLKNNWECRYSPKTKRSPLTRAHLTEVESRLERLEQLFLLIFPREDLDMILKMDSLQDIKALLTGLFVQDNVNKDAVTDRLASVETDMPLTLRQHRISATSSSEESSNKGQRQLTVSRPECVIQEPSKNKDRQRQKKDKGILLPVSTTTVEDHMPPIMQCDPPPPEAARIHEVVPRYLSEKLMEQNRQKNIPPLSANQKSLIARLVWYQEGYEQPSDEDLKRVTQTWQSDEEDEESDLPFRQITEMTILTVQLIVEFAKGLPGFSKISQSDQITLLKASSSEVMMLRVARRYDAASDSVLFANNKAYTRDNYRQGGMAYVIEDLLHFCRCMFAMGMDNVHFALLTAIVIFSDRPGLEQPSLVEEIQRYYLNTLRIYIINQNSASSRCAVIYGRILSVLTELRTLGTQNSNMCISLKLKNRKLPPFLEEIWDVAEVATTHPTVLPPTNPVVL

Biological target: BmEcR (GAL4-EcR DEF with VP16-RXR-USP chimera) (Bombyx mori, UniProt P49881)
Assay: Two-hybrid gene switch assay, luciferase reporter, BmEcR, mouse NIH3T3 cells
Assay type: cell-based

SMILES | EC50 (FIG. 15, GAL4-EcR (DEF) / VP16-RXR-USP chimera) | EC50 (FIG. 13A/13B, GAL4-EcR(DEF) with VP16-RXR-USP chimera)
CC(C)CC[C@@H](O)[C@](C)(O)[C@H]1CC[C@@]2(O)C3=CC(=O)[C@@H]4C[C@@H](O)[C@@H](O)C[C@]4(C)[C@H]3CC[C@]12C | 340 nM | –
C[C@@H]1C(=O)O[C@H](C)[C@H]1C[C@@H](O)[C@](C)(O)[C@H]1CC[C@@]2(O)C3=CC(=O)[C@@H]4C[C@@H](O)[C@@H](O)C[C@]4(C)[C@H]3CC[C@]12C [cyasterone] | – | 1000 nM
